According to PubChem BioAssay (NCI):
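Test compounds were applied to cells in 96-well plates for 48 hours at 5 doses. Abbreviation: GI50, concentration required for 50% inhibition of growth. TGI denotes the concentration required for complete inhibition of growth.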

Key:
Test in all cases: NCI tumour cell line growth inhibition, 48 h
786-0 renal = system: 786-0 renal
A498 renal = system: A498 renal
A549 NSCLC = system: A549 NSCLC
ACHN renal = system: ACHN renal
BT-549 breast = system: BT-549 breast
CAKI-1 renal = system: CAKI-1 renal
CCRF-CEM leukemia = system: CCRF-CEM leukemia
COLO 205 colon = system: COLO 205 colon
DLD-1 colon = system: DLD-1 colon
DMS 114 small cell lung = system: DMS 114 small cell lung
DMS 273 small cell lung = system: DMS 273 small cell lung
DU-145 prostate = system: DU-145 prostate
EKVX NSCLC = system: EKVX NSCLC
HCC-2998 colon = system: HCC-2998 colon
HCT-116 colon = system: HCT-116 colon
HCT-15 colon = system: HCT-15 colon
HL-60(TB) leukemia = system: HL-60(TB) leukemia
HOP-18 NSCLC = system: HOP-18 NSCLC
HOP-62 NSCLC = system: HOP-62 NSCLC
HOP-92 NSCLC = system: HOP-92 NSCLC
HT29 colon = system: HT29 colon
IGROV1 ovarian = system: IGROV1 ovarian
K-562 leukemia = system: K-562 leukemia
KM12 colon = system: KM12 colon
KM20L2 colon = system: KM20L2 colon
LOX IMVI melanoma = system: LOX IMVI melanoma
LXFL 529 NSCLC = system: LXFL 529 NSCLC
M14 melanoma = system: M14 melanoma
M19-MEL melanoma = system: M19-MEL melanoma
MALME-3M melanoma = system: MALME-3M melanoma
MCF7 breast = system: MCF7 breast
MDA-MB-231 breast = system: MDA-MB-231 breast
MDA-MB-435 = system: MDA-MB-435
MDA-N = system: MDA-N
MOLT-4 leukemia = system: MOLT-4 leukemia

In the case of `C[C@@H]1CCOC(=O)/C=C/C=C\C(=O)O[C@@H]2C[C@H]3O[C@@H]4[C@@H]5OC5(C)CCC4(COC(=O)[C@H]1O)[C@]2(C)[C@@]31CO1` (stereo partly specified), the GI50 (786-0 renal) is reported as 151 nM, the TGI (786-0 renal) is reported as 273 nM and the GI50 (A498 renal) is reported as < 10 nM. For the same compound, the TGI (A498 renal) was < 10 nM, the GI50 (A549 NSCLC) was 53.2 nM and the TGI (A549 NSCLC) was 80.9 nM. For the same compound, the GI50 (ACHN renal) was 56.3 nM, the TGI (ACHN renal) was 68.5 nM and the GI50 (BT-549 breast) was < 10 nM. The TGI (BT-549 breast) was < 10 nM, the GI50 (CAKI-1 renal) was 52.2 nM and the TGI (CAKI-1 renal) was 279 nM. For the same compound, the GI50 (CCRF-CEM leukemia) was 161 nM, the TGI (CCRF-CEM leukemia) was 307 nM and the GI50 (COLO 205 colon) was 39.5 nM. The TGI (COLO 205 colon) was 68.5 nM, the GI50 (DLD-1 colon) was < 10 nM and the TGI (DLD-1 colon) was < 10 nM. The GI50 (DMS 114 small cell lung) was < 10 nM, the TGI (DMS 114 small cell lung) was < 10 nM and the GI50 (DMS 273 small cell lung) was < 10 nM. The TGI (DMS 273 small cell lung) was < 10 nM, the GI50 (DU-145 prostate) was 392 nM and the TGI (DU-145 prostate) was 810 nM. It also gave a GI50 (EKVX NSCLC) of 354 nM, a TGI (EKVX NSCLC) of 1280 nM and a GI50 (HCC-2998 colon) of 51.2 nM. It also gave a TGI (HCC-2998 colon) of 106 nM, a TGI (HCT-116 colon) of 14 µM and a GI50 (HCT-15 colon) of 64.5 nM. For the same compound, the TGI (HCT-15 colon) was 102 nM, the GI50 (HL-60(TB) leukemia) was 135 nM and the TGI (HL-60(TB) leukemia) was 265 nM. The GI50 (HOP-18 NSCLC) was 19.8 nM, the TGI (HOP-18 NSCLC) was 145 nM and the GI50 (HOP-62 NSCLC) was 61.6 nM. For the same compound, the TGI (HOP-62 NSCLC) was 102 nM, the GI50 (HOP-92 NSCLC) was 58.9 nM and the TGI (HOP-92 NSCLC) was 159 nM. For the same compound, the GI50 (HT29 colon) was 28.2 nM, the TGI (HT29 colon) was 49.8 nM and the GI50 (IGROV1 ovarian) was 35.1 nM. It also gave a TGI (IGROV1 ovarian) of 524 nM, a GI50 (K-562 leukemia) of 360 nM and a TGI (K-562 leukemia) of 615 nM. The GI50 (KM12 colon) was 51.8 nM, the TGI (KM12 colon) was 154 nM and the GI50 (KM20L2 colon) was < 10 nM. The TGI (KM20L2 colon) was 14.8 nM, the GI50 (LOX IMVI melanoma) was 193 nM and the TGI (LOX IMVI melanoma) was 423 nM. For the same compound, the GI50 (LXFL 529 NSCLC) was < 10 nM, the TGI (LXFL 529 NSCLC) was < 10 nM and the GI50 (M14 melanoma) was 46.2 nM. For the same compound, the TGI (M14 melanoma) was 68.3 nM, the GI50 (M19-MEL melanoma) was < 10 nM and the TGI (M19-MEL melanoma) was < 10 nM. For the same compound, the GI50 (MALME-3M melanoma) was 96.4 nM, the TGI (MALME-3M melanoma) was 130 nM and the TGI (MCF7 breast) was 28.3 µM. The TGI (MDA-MB-231 breast) was 2130 nM, the GI50 (MDA-MB-435) was 330 nM and the TGI (MDA-MB-435) was 796 nM. The GI50 (MDA-N) was 282 nM, the TGI (MDA-N) was 464 nM and the GI50 (MOLT-4 leukemia) was 156 nM.
